Drawing on ChEMBL document CHEMBL3112547, “Surface plasmon resonance using the catalytic domain of soluble guanylate cyclase allows the detection of enzyme activators” (Bioorg Med Chem Lett, 2014), this text covers Activity for one compound.

By UniProt entry, the sequences of proteins in these tests, tags left out. Where a name states a change or a piece, a line headed by the entry shows the natural chain unless it says otherwise.
UniProt Q02153: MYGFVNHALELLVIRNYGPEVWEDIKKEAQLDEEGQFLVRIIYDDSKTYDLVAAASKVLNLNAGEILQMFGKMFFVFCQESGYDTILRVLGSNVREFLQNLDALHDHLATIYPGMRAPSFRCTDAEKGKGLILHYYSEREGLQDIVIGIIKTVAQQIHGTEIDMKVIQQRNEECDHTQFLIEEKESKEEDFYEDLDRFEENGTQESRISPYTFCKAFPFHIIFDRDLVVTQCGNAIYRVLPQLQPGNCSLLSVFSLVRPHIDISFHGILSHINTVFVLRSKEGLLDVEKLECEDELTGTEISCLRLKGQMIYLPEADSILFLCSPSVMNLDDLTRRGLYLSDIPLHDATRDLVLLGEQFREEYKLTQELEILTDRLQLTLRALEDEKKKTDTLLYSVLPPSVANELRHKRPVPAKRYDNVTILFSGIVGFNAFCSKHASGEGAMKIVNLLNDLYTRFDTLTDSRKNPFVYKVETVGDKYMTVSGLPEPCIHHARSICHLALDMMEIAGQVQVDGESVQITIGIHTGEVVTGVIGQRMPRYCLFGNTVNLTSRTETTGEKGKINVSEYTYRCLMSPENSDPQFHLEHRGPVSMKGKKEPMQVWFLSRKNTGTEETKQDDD
UniProt Q02108: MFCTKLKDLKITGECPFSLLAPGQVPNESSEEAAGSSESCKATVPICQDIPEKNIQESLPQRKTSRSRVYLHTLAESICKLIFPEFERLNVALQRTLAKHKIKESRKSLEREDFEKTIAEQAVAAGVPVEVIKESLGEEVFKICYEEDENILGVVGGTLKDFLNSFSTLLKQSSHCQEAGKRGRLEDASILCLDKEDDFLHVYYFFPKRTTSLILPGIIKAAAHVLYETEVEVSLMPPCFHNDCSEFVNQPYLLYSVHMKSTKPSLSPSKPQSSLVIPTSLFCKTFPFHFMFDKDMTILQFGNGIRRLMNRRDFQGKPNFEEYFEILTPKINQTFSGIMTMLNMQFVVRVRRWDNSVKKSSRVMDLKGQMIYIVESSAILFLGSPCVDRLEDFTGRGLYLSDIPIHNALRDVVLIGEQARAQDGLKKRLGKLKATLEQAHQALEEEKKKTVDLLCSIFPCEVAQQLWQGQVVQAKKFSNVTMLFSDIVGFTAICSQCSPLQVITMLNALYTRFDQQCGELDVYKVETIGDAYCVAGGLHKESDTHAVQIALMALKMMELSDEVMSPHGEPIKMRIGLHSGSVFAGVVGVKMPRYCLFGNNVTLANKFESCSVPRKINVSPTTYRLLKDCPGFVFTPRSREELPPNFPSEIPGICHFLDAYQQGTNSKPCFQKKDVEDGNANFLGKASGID

In the assay the target is Soluble guanylate cyclase alpha1/beta1 complex (Homo sapiens) (UniProt Q02153+Q02108). Description: Binding affinity to sGC subunit alpha-1/beta-1 catalytic domain (unknown origin) assessed as additive binding at 100 uM after 30 seconds by SPR analysis in presence of GTP. The format is protein-complex assay. On the technique in general: SPR reads the build-up and loss of mass on a sensor chip optically.

Activity calls are given as the source filed them. The rule behind the calls is not given here.

For the compound `OCc1ccc(-c2nn(Cc3ccccc3)c3ccccc23)o1`, the outcome was Active.
